One assay addresses MCR-4 (Homo sapiens, UniProt P32245). Put plainly: cAMP assay for melanocortin receptors, HEK 293 cells expressing MCR-4. The method, then:
(§1) HEK 293 cells expressing MCR-1, MCR-3, MCR-4 and MCR-5 were used (see Example II). Cells were plated at 20,000 cells per well in a 96-well plate coated with collagen. The next day, cells were pretreated with 75 μl of 0.4 mM 3-isobutyl-1-methylxanthine (IBMX) in low serum medium containing DMEM, 25 mM HEPES, non-essential amino acids, vitamins, 100 units/ml penicillin, 100 μg/ml streptomycin and 0.1% COSMIC CALF SERUM. IBMX is an inhibitor of cAMP phosphodiesterase. The pretreatment was carried out for 10 min at 37° C.
(§2) Following pretreatment, 25 μl of diluted isoquinoline compound was added to the wells, and cells were incubated for 15 min at 37° C. Cells were lysed by adding 25 μl saponin lysis buffer and incubating 2 to 5 min. Plates were covered and stored at −20° C.
cAMP concentration was determined by ELISA. Briefly, 96 well ELISA plates were coated with goat anti-cAMP antibody in PBS for 12 to 72 hr at 4° C. 50 μl of sample was mixed with 50 μl of cAMP ELISA buffer containing 1% bovine serum albumin, 10% heat-inactivated donor horse serum, 1% normal mouse serum and 0.05% TWEEN-20 in PBS, and the diluted sample was added to the coated ELISA plate. Standards of known concentrations of cAMP were added to separate wells. […] Plates were washed and the binding of cAMP-HRP was detected with 3,3′,5,5′-tetramethylbenzidine (TMB) and hydrogen peroxide using standard immunoassay procedures. […]

The chains behind the UniProt entries cited, without tags or fusion partners.
UniProt P32245, whole entry: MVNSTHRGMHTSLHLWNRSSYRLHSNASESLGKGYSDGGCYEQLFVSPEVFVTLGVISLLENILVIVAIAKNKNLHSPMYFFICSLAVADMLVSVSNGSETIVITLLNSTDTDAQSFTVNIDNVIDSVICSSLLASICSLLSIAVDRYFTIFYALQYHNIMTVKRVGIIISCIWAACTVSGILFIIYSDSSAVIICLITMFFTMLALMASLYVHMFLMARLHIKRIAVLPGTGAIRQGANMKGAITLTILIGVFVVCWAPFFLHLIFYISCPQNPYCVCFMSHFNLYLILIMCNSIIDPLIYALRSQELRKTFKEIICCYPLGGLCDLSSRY
UniProt Q01726, whole entry: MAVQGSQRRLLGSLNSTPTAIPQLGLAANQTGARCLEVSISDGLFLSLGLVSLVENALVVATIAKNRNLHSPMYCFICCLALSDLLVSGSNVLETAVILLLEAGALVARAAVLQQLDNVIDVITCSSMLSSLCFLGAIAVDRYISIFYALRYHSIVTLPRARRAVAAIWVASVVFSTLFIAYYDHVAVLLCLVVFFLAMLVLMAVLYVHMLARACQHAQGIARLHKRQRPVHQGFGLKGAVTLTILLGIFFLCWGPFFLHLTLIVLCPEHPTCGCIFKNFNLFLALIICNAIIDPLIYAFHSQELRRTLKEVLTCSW

Another assay concerns the target MCR-1 (Homo sapiens, UniProt Q01726). Put plainly: cAMP assay for melanocortin receptors, HEK 293 cells expressing MCR-1. The protocol: as §1, §2
cAMP concentration was determined by ELISA. Briefly, 96 well ELISA plates were coated with goat anti-cAMP antibody in PBS for 12 to 72 hr at 4° C. 50 μl of sample was mixed with 50 μl of cAMP ELISA buffer containing 1% bovine serum albumin, 10% heat-inactivated donor horse serum, 1% normal mouse serum and 0.05% TWEEN-20 in PBS, and the diluted sample was added to the coated ELISA plate. Standards of known concentrations of cAMP were added to separate wells. 25 μl of 16 ng/ml cAMP-conjugated horse radish peroxidase (HRP) (cAMP-HRP) was added to each well, and the plates were […] at room temperature. Plates were washed and the binding of cAMP-HRP was detected with 3,3′,5,5′-tetramethylbenzidine (TMB) and hydrogen peroxide using standard immunoassay procedures.
Various isoquinoline compounds were tested for their ability to activate MC receptor by measuring cAMP as described in Example III.

The next assay has as its system IL-10. The experiment in a line: Increasing levels of IL-10 in mice (plasma ELISA). The conditions noted are these: 90 or 105 minutes. The protocol:
Isoquinoline compounds were administered intraperitoneally to mice in doses of 30, 100 or 300 μg/mouse or orally in doses of 300 or 600 μg/mouse. Levels of IL-10 were measured 90 or 105 minutes after administration as indicated. Samples were collected and diluted, when appropriate, as described in Example VI. A 100 μl sample of plasma was assayed by ELISA for IL-10. Briefly, ELISA plates were coated with rat anti-mouse IL-10 monoclonal antibody (Pharmingen; San Diego Calif.). Samples or known concentrations of IL-10 were added to the coated plates and incubated for 2 hr at 37° C. Plates were washed and incubated with biotinylated rat anti-mouse IL-10 (R&D Systems; Minneapolis Minn.) for 1 hr at 37° C. Plates were washed and incubated with streptavidin-HRP 30 min at 37° C., and HRP activity was detected with hydrogen peroxide and TMB using standard immunoassay procedures.
TRG 2408-30 is particularly effective at increasing IL-10 when administered orally.

This note sets out measurements from patent US6608082B1, “Treatment of erectile dysfunction using isoquinoline compound melanocortin receptor ligands” (Lion Bioscience AG, priority 1998, dated 2003).

Molecules are shown by their SMILES.

`CCNc1ccc(C2C(CNCc3ccccc3O)c3ccccc3CN2CCCC[C@@H](CN)NC)cc1` (stereo partly drawn): the “MC-4 Max (pmole) cAMP produced” value on MCR-4 (maximum amount of cAMP) came to 50.71 pmol. Moreover, the concentration giving a half-maximal response (EC50) is 47.6 µM on MCR-4 (read-out: MC-4 EC50 (cAMP)) and 1100 nM at MCR-1 (read-out: MC-1 EC50 (cAMP), 50% of maximal cAMP production). Also, on MCR-1 (maximum amount of cAMP), the “MC-1 Max (pmole) cAMP produced” value turned out to be 20 pmol. Besides, in the assay with IL-10 (30 μg per mouse), the “% IL-10 Induction, IP 30” value turned out to be 50 ± 16%. For the same compound, the “% IL-10 Induction, IP 300” value in the assay with IL-10 (300 μg per mouse) is on record as 180 ± 50 %.
